# Data as given in US8389247B2, “Physiogenomic method for predicting diabetes and metabolic syndromes induced by psychotropic drugs” (priority 2006, dated 2013).
# Assay: Outcome variables of patients on each psychotropic drug broken down by demographic factors (Covariates tables)
# Conditions: human, in vivo
smiles,measurement,value
"OCCOCCN1CCN(C2=Nc3ccccc3Sc3ccccc32)CC1 [Quetiapine, quetiapine]",TC/HDL,4.023
same,Waist,102.05
